Results taken from ChEMBL document CHEMBL6074668 (J Med Chem, 2024).

Sequences of proteins named here, by UniProt entry; tags and fusion partners are left off. A change or cut given only in a name is not applied to a line headed by its entry.
UniProt P41145: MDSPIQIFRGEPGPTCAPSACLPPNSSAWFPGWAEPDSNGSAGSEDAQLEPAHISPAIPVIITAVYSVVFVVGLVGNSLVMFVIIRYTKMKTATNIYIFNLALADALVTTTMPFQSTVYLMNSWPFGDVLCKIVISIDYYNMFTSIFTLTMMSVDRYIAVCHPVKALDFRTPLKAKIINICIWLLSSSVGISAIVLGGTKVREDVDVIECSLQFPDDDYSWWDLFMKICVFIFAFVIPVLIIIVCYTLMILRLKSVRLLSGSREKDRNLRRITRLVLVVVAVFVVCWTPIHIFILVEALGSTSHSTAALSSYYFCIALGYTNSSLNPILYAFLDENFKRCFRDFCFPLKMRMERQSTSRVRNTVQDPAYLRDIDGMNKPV
UniProt P41143, whole entry: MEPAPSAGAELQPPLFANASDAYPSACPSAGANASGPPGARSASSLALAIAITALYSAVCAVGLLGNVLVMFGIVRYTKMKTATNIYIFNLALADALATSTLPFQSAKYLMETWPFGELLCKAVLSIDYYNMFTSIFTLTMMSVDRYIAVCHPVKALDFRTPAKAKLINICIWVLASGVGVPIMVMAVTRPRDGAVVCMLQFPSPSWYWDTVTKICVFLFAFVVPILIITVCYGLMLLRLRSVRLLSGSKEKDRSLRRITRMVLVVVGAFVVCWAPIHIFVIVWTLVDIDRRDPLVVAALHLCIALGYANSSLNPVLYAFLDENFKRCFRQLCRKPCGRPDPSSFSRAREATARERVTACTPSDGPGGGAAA
UniProt P23975, whole entry: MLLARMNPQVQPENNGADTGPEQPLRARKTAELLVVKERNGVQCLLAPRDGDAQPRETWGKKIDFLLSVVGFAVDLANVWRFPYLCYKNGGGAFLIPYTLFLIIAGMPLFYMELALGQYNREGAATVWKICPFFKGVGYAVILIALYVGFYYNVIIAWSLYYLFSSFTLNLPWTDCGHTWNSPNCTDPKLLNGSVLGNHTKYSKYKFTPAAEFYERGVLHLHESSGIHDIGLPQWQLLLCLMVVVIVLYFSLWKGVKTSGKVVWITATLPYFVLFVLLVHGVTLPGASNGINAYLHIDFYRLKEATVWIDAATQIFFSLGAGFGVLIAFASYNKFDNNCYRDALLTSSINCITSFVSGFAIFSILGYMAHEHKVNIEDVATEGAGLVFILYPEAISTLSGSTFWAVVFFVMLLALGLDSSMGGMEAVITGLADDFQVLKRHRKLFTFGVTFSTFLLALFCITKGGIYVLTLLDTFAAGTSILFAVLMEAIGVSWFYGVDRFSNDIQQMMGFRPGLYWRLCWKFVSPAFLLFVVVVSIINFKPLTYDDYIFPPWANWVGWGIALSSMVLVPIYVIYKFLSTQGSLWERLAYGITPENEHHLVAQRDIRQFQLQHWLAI
UniProt P41595, whole entry: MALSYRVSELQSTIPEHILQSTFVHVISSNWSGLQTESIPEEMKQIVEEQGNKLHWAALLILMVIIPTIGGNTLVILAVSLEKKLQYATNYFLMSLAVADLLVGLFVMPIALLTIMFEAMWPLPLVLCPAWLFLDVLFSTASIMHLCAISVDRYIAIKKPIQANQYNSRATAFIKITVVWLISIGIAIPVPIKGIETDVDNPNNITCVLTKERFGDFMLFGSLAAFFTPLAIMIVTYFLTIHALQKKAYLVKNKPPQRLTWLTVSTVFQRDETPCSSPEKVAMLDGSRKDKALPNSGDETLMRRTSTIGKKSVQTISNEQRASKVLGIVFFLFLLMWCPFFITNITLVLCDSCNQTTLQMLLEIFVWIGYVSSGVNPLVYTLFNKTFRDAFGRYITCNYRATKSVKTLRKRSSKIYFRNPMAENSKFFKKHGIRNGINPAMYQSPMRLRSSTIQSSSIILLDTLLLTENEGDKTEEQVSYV
UniProt P08913, whole entry: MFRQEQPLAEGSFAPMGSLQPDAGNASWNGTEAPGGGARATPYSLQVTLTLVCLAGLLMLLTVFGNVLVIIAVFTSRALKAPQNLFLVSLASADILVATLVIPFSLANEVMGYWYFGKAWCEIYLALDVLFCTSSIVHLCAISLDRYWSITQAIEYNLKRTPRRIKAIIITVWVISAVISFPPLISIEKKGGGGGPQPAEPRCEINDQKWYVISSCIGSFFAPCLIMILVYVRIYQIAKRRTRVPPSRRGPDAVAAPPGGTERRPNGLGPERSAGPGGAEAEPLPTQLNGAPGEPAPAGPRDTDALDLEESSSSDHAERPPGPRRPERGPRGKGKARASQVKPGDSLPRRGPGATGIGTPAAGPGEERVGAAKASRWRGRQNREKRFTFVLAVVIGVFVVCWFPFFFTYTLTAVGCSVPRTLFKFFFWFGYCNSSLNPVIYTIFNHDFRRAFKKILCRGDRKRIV
UniProt P35368, whole entry: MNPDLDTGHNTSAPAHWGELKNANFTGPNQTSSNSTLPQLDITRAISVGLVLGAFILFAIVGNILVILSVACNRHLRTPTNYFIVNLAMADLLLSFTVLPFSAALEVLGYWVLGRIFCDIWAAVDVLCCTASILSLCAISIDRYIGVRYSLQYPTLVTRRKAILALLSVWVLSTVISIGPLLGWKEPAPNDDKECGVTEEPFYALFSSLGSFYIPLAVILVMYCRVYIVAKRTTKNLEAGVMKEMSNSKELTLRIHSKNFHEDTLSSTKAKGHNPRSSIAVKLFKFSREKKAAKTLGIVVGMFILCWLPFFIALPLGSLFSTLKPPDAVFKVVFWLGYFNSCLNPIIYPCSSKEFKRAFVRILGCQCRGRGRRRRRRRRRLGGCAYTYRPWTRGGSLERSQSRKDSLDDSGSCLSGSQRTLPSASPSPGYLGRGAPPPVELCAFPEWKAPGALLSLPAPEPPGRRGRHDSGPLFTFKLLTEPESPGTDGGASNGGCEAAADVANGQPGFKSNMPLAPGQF
UniProt P25100, whole entry: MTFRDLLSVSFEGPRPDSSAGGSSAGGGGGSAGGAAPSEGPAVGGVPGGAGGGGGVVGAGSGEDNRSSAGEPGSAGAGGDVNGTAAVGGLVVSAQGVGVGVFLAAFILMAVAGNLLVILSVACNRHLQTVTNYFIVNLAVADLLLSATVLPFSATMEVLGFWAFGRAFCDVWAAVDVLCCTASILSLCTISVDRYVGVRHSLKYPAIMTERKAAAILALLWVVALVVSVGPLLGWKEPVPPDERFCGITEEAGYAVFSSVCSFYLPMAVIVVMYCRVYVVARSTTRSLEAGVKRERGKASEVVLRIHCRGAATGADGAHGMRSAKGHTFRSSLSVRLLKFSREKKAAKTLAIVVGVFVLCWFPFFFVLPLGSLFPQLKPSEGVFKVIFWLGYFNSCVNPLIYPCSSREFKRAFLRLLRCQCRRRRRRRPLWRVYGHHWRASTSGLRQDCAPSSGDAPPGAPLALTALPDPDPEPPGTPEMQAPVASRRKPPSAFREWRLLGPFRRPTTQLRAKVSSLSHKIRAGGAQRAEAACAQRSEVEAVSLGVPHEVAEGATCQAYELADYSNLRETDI
UniProt P18089, whole entry: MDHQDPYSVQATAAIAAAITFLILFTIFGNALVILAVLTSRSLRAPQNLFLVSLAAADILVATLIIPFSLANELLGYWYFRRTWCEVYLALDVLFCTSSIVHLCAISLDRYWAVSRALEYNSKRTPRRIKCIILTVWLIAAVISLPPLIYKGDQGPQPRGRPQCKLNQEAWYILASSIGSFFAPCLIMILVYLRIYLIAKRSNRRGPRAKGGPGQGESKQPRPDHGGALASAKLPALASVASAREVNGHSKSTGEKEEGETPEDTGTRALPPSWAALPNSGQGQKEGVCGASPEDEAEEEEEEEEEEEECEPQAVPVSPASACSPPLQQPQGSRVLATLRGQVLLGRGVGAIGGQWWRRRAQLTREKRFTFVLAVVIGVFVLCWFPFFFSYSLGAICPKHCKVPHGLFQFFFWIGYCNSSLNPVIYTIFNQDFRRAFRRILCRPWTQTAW
UniProt P35372, whole entry: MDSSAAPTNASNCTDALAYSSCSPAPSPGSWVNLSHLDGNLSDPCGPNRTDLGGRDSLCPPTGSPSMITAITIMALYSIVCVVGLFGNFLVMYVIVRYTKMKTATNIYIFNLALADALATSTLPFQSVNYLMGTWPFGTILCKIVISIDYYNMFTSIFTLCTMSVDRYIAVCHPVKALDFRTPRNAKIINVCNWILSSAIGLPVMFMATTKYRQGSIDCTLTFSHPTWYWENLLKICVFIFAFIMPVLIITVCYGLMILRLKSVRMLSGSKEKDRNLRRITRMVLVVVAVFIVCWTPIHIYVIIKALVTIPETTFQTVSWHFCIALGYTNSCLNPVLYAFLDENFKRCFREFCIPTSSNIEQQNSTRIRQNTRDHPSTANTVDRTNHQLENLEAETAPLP

Key:
[1] = biological target: T1, Kappa-type opioid receptor (Homo sapiens, UniProt P41145); assay: Potency index, ratio of akuammicine-EC50 to test compound EC50 for agonist activity at human kappa opioid receptor expressed in CHO-K1 cells assessed as inhibition of forskolin-stimulated cAMP accumulation by HitHunter assay based luminescence analysis; assay type: functional, cell-based
Homo sapiens [2] = species on record: Homo sapiens; assay: Binding affinity to Sigma2 opioid receptor (unknown origin) at 10 uM by radioligand displacement assay
[3] = biological target: Delta-type opioid receptor (Homo sapiens) (UniProt P41143); assay: Binding affinity to delta opioid receptor (unknown origin) at 10 uM by radioligand displacement assay
[4] = biological target: Sodium-dependent noradrenaline transporter (Homo sapiens, UniProt P23975); assay: Binding affinity to NET (unknown origin) at 10 uM by radioligand displacement assay
[5] = biological target: 5-hydroxytryptamine receptor 2B (Homo sapiens, UniProt P41595); assay: Binding affinity to 5HT2B receptor (unknown origin) at 10 uM by radioligand displacement assay
[6] = biological target: Alpha-2A adrenergic receptor (Homo sapiens, UniProt P08913); assay: Binding affinity to alpha2A adrenergic receptor (unknown origin) at 10 uM by radioligand displacement assay
Homo sapiens [7] = species on record: Homo sapiens; assay: Binding affinity to alpha7 adrenergic receptor (unknown origin) at 10 uM by radioligand displacement assay
[8] = biological target: T2, Alpha-1A adrenergic receptor (Homo sapiens) (UniProt P35348); assay: Binding affinity to alpha1A adrenergic receptor (unknown origin) at 10 uM by radioligand displacement assay
T2 sequence (whole entry): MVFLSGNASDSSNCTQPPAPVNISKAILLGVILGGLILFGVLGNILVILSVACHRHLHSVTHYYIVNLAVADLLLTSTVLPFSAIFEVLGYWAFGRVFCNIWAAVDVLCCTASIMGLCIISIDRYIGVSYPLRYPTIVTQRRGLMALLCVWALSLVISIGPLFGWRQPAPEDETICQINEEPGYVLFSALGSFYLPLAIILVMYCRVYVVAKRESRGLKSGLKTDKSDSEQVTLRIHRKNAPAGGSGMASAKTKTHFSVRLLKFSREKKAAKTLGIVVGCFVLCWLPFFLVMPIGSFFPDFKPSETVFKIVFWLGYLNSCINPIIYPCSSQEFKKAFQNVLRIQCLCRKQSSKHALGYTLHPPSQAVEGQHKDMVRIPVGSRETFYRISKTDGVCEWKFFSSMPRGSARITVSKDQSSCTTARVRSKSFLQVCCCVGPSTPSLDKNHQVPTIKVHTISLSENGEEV

[9] = biological target: Alpha-1B adrenergic receptor (Homo sapiens, UniProt P35368); assay: Binding affinity to alpha1B adrenergic receptor (unknown origin) at 10 uM by radioligand displacement assay
[10] = biological target: Alpha-1D adrenergic receptor (Homo sapiens, UniProt P25100); assay: Binding affinity to alpha1D adrenergic receptor (unknown origin) at 10 uM by radioligand displacement assay
[11] = biological target: Alpha-2B adrenergic receptor (Homo sapiens, UniProt P18089); assay: Binding affinity to alpha2B adrenergic receptor (unknown origin) at 10 uM by radioligand displacement assay
[12] = Selectivity for kappa opoid receptor (unknown origin) over alpha2A adrenergic receptor (unknown origin)
[13] = Selectivity for kappa opoid receptor (unknown origin) over alpha2C adrenergic receptor (unknown origin)
[14] = Selectivity for kappa opoid receptor (unknown origin) over mu opioid receptor (unknown origin)
[15] = Selectivity for kappa opoid receptor (unknown origin) over alpha1D adrenergic receptor (unknown origin)
[16] = Selectivity for kappa opoid receptor (unknown origin) over 5HT7A receptor (unknown origin)
[17] = Selectivity for kappa opoid receptor (unknown origin) over alpha7 adrenergic receptor (unknown origin)
[18] = Selectivity for kappa opoid receptor (unknown origin) over Sigma2 opioid receptor (unknown origin)
[19] = Selectivity for kappa opoid receptor (unknown origin) over 5HT3 receptor (unknown origin)
[20] = Selectivity for kappa opoid receptor (unknown origin) over hERG
[21] = Selectivity for kappa opoid receptor (unknown origin) over 5HT2A receptor (unknown origin)
[22] = Selectivity for kappa opoid receptor (unknown origin) over alpha1B adrenergic receptor (unknown origin)
Mu-type opioid receptor = Mu-type opioid receptor (Homo sapiens, UniProt P35372); assay: Binding affinity to mu opioid receptor (unknown origin) at 10 uM by radioligand displacement assay
[23] = Selectivity for kappa opoid receptor (unknown origin) over 5HT2B receptor (unknown origin)
[24] = Selectivity for kappa opoid receptor (unknown origin) over alpha2B adrenergic receptor (unknown origin)
[25] = biological target: T1, Kappa-type opioid receptor; assay: Agonist activity at kappa opioid receptor (unknown origin) expressed in human U2OS cells assessed as beta arrestin2 recruitment incubated for 30 mins by PathHunter assay; assay type: functional, cell-based; details: filed as agonist
[26] = Selectivity index, ratio of Ki for mu opioid receptor (unknown origin) expressed in CHO cell membrane to Ki for kappa opioid receptor (unknown origin) expressed in CHO cell membrane; assay type: cell-based
[27] = Selectivity for kappa opoid receptor (unknown origin) over 5HT5A receptor (unknown origin)
[28] = Selectivity for kappa opoid receptor (unknown origin) over NET (unknown origin)
[29] = Selectivity for kappa opoid receptor (unknown origin) over delta opioid receptor (unknown origin)
[30] = Selectivity for kappa opoid receptor (unknown origin) over alpha1A adrenergic receptor (unknown origin)

C/C=C1/CN2CC[C@]34C(=C(C(=O)OC)[C@H]1C[C@H]23)Nc1ccc(-c2ccoc2)cc14
> 1300: Ratio EC50 [1]

C/C=C1/CN2CC[C@]34C(=C(C(=O)OC)[C@H]1C[C@H]23)Nc1ccccc14 [AKUAMMICINE]
< 50%: Activity (Homo sapiens [2]) | Activity [3] | Activity [4] | Activity [5] | Activity [6] | Activity (Homo sapiens [7]) | Activity [8] | Activity [9] | Activity [10]

C/C=C1/CN2CC[C@]34C(=C(C(=O)OC)[C@H]1C[C@H]23)Nc1ccc(I)cc14
40000: Ratio Ki [26]
> 200: Selectivity ratio [12] | Selectivity ratio [13] | Selectivity ratio [14] | Selectivity ratio [15] | Selectivity ratio [16] | Selectivity ratio [17] | Selectivity ratio [18] | Selectivity ratio [19] | Selectivity ratio [20] | Selectivity ratio [21] | Selectivity ratio [22] | Selectivity ratio [23] | Selectivity ratio [24] | Selectivity ratio [27] | Selectivity ratio [28] | Selectivity ratio [29] | Selectivity ratio [30]
< 50%: Activity [11] | Activity [3] | Activity (Mu-type opioid receptor)
Active; More Efficacious Than U50488: Activity [25]
200: Ratio EC50 ([1]; filed as agonist)
